Among the data in PubChem BioAssay AID1259422 (The Scripps Research Institute Molecular Screening Center, 2018) are inhibition values, retold here.

The list shows a part of the results, in another mix than the full data. Some salts or complexes appear as unconnected parts, following the source record. The source made the active and inactive calls. Rule as the data show it: active = inhibition above about 32%; inactive = the rest.

A short description of the experiment: TEAD-YAP interaction inhibition, primary screen, TEAD-YAP interaction inhibitor project, luminescence, HEK-TIYL cells (AID 1259422).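 Also: 0% = median of test compound wells and 100% = reference inhibitor wells.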 As to conditions: TEAD-Gal4/YAP UAS-luciferase luminescence, at 9.12 µM, active compounds read high.
On to `O=C(Nc1ccccc1O)c1c([N+](=O)[O-])cc([N+](=O)[O-])cc1[N+](=O)[O-]`, for which the inhibition (in general, the drop in the measured response relative to a control, in per cent) was inactive: 3.98%. Under `CN1CCCC1=C1c2cc([N+](=O)[O-])cc([N+](=O)[O-])c2-c2c1cc([N+](=O)[O-])cc2[N+](=O)[O-]` stands inactive: 5.45%. Under `CCc1ccc(OP(C)(=O)Nc2ccc(I)cc2)cc1` (stereo not given) stands inactive: 2.57%.

As for `COc1ccc(OP(C)(=O)Nc2ccc(Br)cc2)cc1` (stereo not given), the inhibition is inactive: 5.75%. With `O=[N+]([O-])c1cc([N+](=O)[O-])c(NCc2ccccc2)c([N+](=O)[O-])c1`, the inhibition is inactive: -7.78%. Under `COc1ccccc1OP(C)(=O)Nc1c(C)n(C)n(-c2ccccc2)c1=O` (stereo not given) stands inactive: 20.6%; under `OCCSCCO`, inactive: 6.15%. Under `CP(=O)(Oc1ccccc1)N1CCOC1=O` (stereo not given) stands inactive: 6.84%; under `O=[N+]([O-])c1cc([N+](=O)[O-])c(N2CCOCC2)c([N+](=O)[O-])c1`, inactive: 7.31%; under `[O-][n+]1onc2c1c1no[n+]([O-])c1c1no[n+]([O-])c21`, inactive: -14.8%. The figure for `Cc1c([N+](=O)[O-])cc([N+](=O)[O-])c(Nc2ccc(C(=O)O)cc2)c1[N+](=O)[O-]` is inactive: 2.76%; for `COc1cccc(C(OP(C)(=O)O)C(F)(F)F)c1` (stereo not given) it is inactive: -8.12%. On to `CP(=O)(Nc1ccc(Cl)cc1)Oc1ccc(F)cc1` (stereo not given), for which the inhibition is inactive: 5.24%.

As for `CN(C)/C=C(\C=O)c1c([N+](=O)[O-])cc([N+](=O)[O-])cc1[N+](=O)[O-]`, the inhibition was inactive: 1.48%.

In the case of `CN(C)C(=O)c1c([N+](=O)[O-])cc([N+](=O)[O-])cc1[N+](=O)[O-]`, the inhibition was inactive: 4.06%. Turning to `O=[N+]([O-])c1cc([N+](=O)[O-])c(Nc2ccccc2CO)c([N+](=O)[O-])c1`, the inhibition was inactive: 4.66%. Under `CP(=O)(Nc1ccc(F)c(Cl)c1)Oc1ccccc1` (stereo not given) stands inactive: 2.96%; under `CC(C)c1ccc(OP(C)(=O)O)cc1`, inactive: 2.86%. The figure for `NNc1c([N+](=O)[O-])cc([N+](=O)[O-])cc1[N+](=O)[O-]` is inactive: -11.1%; for `Nc1nonc1-[n+]1nc2nonc2[n-]1` it is inactive: 13.7%. The figure for `CP(=O)(Nc1cccc(Cl)c1)Nc1cccc(Cl)c1` is inactive: 0.18%. Consider `CCOC(=O)c1ccc(NP(C)(=O)Oc2ccc(Cl)cc2)cc1` (stereo not given), for which the inhibition is inactive: -11%.

With `CP(=O)(OC12CC3CC(CC(C3)C1)C2)OC12CC3CC(CC(C3)C1)C2`, the inhibition was inactive: 3.41%. The figure for `O=[N+]([O-])c1cc([N+](=O)[O-])c(Nc2ccccc2)c([N+](=O)[O-])c1` is inactive: -1.05%. In the case of `N1=Nc2nonc2N=Nc2nonc21`, the inhibition was inactive: 9.59%. For the compound `C/C1=C2N=C(/C=C3N=C(/C(C)=C4\[N-]C(C(CC(N)=O)C4(C)CCC(=O)NCC(C)OP(=O)([O-])OC4C(CO)OC(n5cnc6cc(C)c(C)cc65)C4O)C4(C)N=C1C(CCC(N)=O)C4(C)CC(N)=O)C(CCC(N)=O)C\3(C)C)C(CCC(N)=O)C/2(C)CC(N)=O.C/C1=C2N=C(/C=C3N=C(/C(C)=C4\[N-]C(C(CC(N)=O)C4(C)CCC(=O)NCC(C)OP(=O)([O-])OC4C(CO)OC(n5cnc6cc(C)c(C)cc65)C4O)C4(C)N=C1C(CCC(N)=O)C4(C)CC(N)=O)C(CCC(N)=O)C\3(C)C)C(CCC(N)=O)C/2(C)CC(N)=O.[C-]#N.[Co+3]` (stereo not given), the inhibition was inactive: 27.6%. The figure for `CN(c1nc2nonc2nc1N(C)[N+](=O)[O-])[N+](=O)[O-]` is inactive: 4.98%; for `CCCCOc1ccc(NP(C)(=O)Oc2ccccc2OC)cc1` (stereo not given) it is inactive: -0.3%.

As for `COc1ccccc1OP(C)(=O)Nc1ccc(C)c(C)c1` (stereo not given), the inhibition is inactive: 4.2%. Under `COc1ccc(OP(C)(=O)Nc2ccccc2Br)cc1` (stereo not given) stands inactive: 1.8%. On to `Cc1cccc(C)c1OP(C)(=O)Nc1ccccc1` (stereo not given), for which the inhibition was inactive: 5.91%. `COCC(CN(C)[N+](=O)[O-])O[N+](=O)[O-]` (stereo not given): the inhibition was inactive: -17.6%. As for `O=[N+]([O-])c1cc([N+](=O)[O-])c(N2CCCCCC2)c([N+](=O)[O-])c1`, the inhibition is inactive: 3.81%. Under `CP(=O)(OCCOc1ccccc1)OCCOc1ccccc1` stands inactive: -7.91%; under `CP(=O)(Nc1ccc(Cl)cc1Cl)Oc1ccccc1` (stereo not given), inactive: -0.42%; under `CN(C)c1c([N+](=O)[O-])cc([N+](=O)[O-])c(N(C)C)c1[N+](=O)[O-]`, inactive: 18.8%. The figure for `NC(=O)c1c([N+](=O)[O-])cc([N+](=O)[O-])cc1[N+](=O)[O-]` is inactive: -3.8%; for `COc1ccccc1OP(C)(=O)Nc1ccc(Br)cc1` (stereo not given) it is inactive: -1.54%; for `COc1ccc(OP(C)(=O)Nc2ccccn2)cc1` (stereo not given) it is inactive: -4.29%.

With `CCN(CC)CCOC(=O)C(O)(c1ccccc1)C1CCCCC1` (stereo not given), the inhibition was inactive: 9.57%.

As for `CN(C)CCOC(=O)C(O)(c1ccccc1)C1CCCC1` (stereo not given), the inhibition was inactive: 6.76%. Under `Nc1c([N+](=O)[O-])cc([N+](=O)[O-])c(Nc2ccccc2C(=O)O)c1[N+](=O)[O-]` stands inactive: 11.8%. The figure for `O=[N+]([O-])c1cc([N+](=O)[O-])c(Nc2ccccn2)c([N+](=O)[O-])c1` is inactive: 13.8%; for `CCOP(C)(=S)SCN(CC(=O)O)C(=O)OCc1ccccc1` (stereo not given) it is inactive: -4.38%; for `Cc1c(NP(C)(=O)Oc2ccc(C(C)C)cc2)c(=O)n(-c2ccccc2)n1C` (stereo not given) it is inactive: 0.86%.

On to `CP(=O)(Nc1ccc(F)cc1)Oc1ccc(Cl)cc1` (stereo not given), for which the inhibition is inactive: -0.76%. The figure for `CC(CN(C)C)OC(=O)C(O)(c1ccccc1)c1ccccc1` (stereo not given) is inactive: 7.97%. The figure for `CCP1(=O)Oc2cc(C(C)(C)C)cc(C(C)(C)C)c2O1` (stereo not given) is inactive: 0.9%; for `Nc1c([N+](=O)[O-])cc([N+](=O)[O-])c2nonc12` it is inactive: 14.8%; for `C=CCNc1c([N+](=O)[O-])cc([N+](=O)[O-])c(C)c1[N+](=O)[O-]` it is inactive: -3.4%. Turning to `CP(=O)(Nc1ccccc1F)Oc1ccccc1` (stereo not given), the inhibition was inactive: -6.88%. The figure for `O=C(OCCN1CCN(CCOCc2ccccc2)CC1)C(O)(c1ccccc1)c1ccccc1` is inactive: 4.76%; for `CP(=O)(Nc1cccnc1)Oc1ccc(Cl)cc1` (stereo not given) it is inactive: 4.36%. Under `Cc1cc([N+](=O)[O-])c(NCC(C)([N+](=O)[O-])[N+](=O)[O-])c([N+](=O)[O-])c1[N+](=O)[O-]` stands inactive: 4.58%; under `O=C(c1c([N+](=O)[O-])cc([N+](=O)[O-])cc1[N+](=O)[O-])N1CCOCC1`, inactive: -8.96%; under `CCOC(=O)c1ccc(NP(C)(=O)Oc2ccc(F)cc2)cc1` (stereo not given), inactive: 2.51%.

Consider `Cc1ccc(Cl)c(OP(C)(=O)Nc2cccnc2)c1` (stereo not given), for which the inhibition is inactive: -0.21%. Regarding `CP(=O)(O)OC(c1ccccc1)C(Cl)(Cl)Cl` (stereo not given), the inhibition is inactive: 1.06%. Under `Cc1ccc(NP(C)(=O)Oc2ccc(Cl)cc2)cc1` (stereo not given) stands inactive: 15.6%; under `COc1cc2c(cc1NP(C)(=O)Oc1ccccc1)oc1ccccc12` (stereo not given), inactive: -2.23%. Under `CP(=O)(Nc1ccccc1)Oc1ccc(F)cc1` (stereo not given) stands inactive: 3.74%. Under `C=CCN1CCN(CCOC(=O)C(O)(c2ccccc2)c2ccccc2)CC1` stands inactive: 0.64%; under `O=[N+]([O-])c1ccc(Nc2c([N+](=O)[O-])cc([N+](=O)[O-])cc2[N+](=O)[O-])cc1`, active: 88.9%. Take `CN(C)CCOC(=O)C(O)(c1ccccc1)C1CCCCC1` (stereo not given): the inhibition is inactive: 0.89%. Regarding `O=[N+]([O-])c1cc([N+](=O)[O-])c(Nc2c([N+](=O)[O-])cc([N+](=O)[O-])cc2[N+](=O)[O-])c([N+](=O)[O-])c1`, the inhibition is inactive: 12.4%.

With `CC(=O)OC1(C#N)CN2CCC1CC2` (stereo not given), the inhibition is inactive: -1.22%. `COc1ccc(NP(C)(=O)Oc2ccccc2OC)cc1` (stereo not given): the inhibition is inactive: 1.39%. Regarding `O=[N+]([O-])c1cc([N+](=O)[O-])c(NCC2CCS(=O)(=O)C2)c([N+](=O)[O-])c1` (stereo not given), the inhibition was inactive: 1.51%.

Turning to `Cc1cc(-c2cccc3ccccc23)c(C)cn1.O=[N+]([O-])c1cc([N+](=O)[O-])c(O)c([N+](=O)[O-])c1`, the inhibition is inactive: 3.41%.

As for `CP(=O)(O)Oc1cccc(Cl)c1Cl`, the inhibition is inactive: -5.35%. The figure for `COc1ccc(OP(C)(=O)Nc2ccccc2)cc1` (stereo not given) is inactive: 2.33%. The figure for `[N-]=[N+]=NCN1c2nonc2N(CN=[N+]=[N-])c2nonc21` is inactive: -2.65%. Under `Cc1c([N+](=O)[O-])c(C)c([N+](=O)[O-])c(C)c1[N+](=O)[O-]` stands inactive: 8.21%. Regarding `Cc1ccc(Cl)c(OP(C)(=O)Nc2ccc(F)cc2)c1` (stereo not given), the inhibition was inactive: 4.86%. The figure for `CP(=O)(O)OC(c1ccccc1)C(F)(F)C(F)(F)F` (stereo not given) is inactive: 1.34%; for `COC(=O)Nc1nc2ccccc2[nH]1.O=C1CCCN1c1ccc(S(=O)(=O)O)cc1[N+](=O)[O-]` it is inactive: 25.2%; for `CCN(CC)c1c([N+](=O)[O-])cc([N+](=O)[O-])cc1[N+](=O)[O-]` it is inactive: -1.28%.

Turning to `CP(=O)(Nc1ccc2c(c1)OCCO2)Oc1ccccc1` (stereo not given), the inhibition is inactive: 8.37%.

Turning to `Cc1ccccc1NP(C)(=O)Nc1ccccc1C`, the inhibition was inactive: 0.86%. Consider `CP(=O)(O)OC(c1ccccc1)C(Cl)(Cl)C(F)(F)F` (stereo not given), for which the inhibition is inactive: -10.7%.

`Nc1nonc1-c1no[n+]([O-])c1-c1nonc1N`: the inhibition is inactive: 30.6%. Under `CCN(CC)C(=O)c1c([N+](=O)[O-])cc([N+](=O)[O-])cc1[N+](=O)[O-]` stands inactive: 19.3%.

Regarding `COc1ccc(NP(C)(=O)Oc2ccc(Cl)cc2)cc1` (stereo not given), the inhibition is inactive: -2.45%. With `Cc1cc(-c2nc3ccccc3[nH]2)c2ccccc2n1.O=[N+]([O-])c1cc([N+](=O)[O-])c(O)c([N+](=O)[O-])c1`, the inhibition was inactive: 6.44%.

As to `CN(C)/N=C/c1ccc(-c2c([N+](=O)[O-])cc([N+](=O)[O-])cc2[N+](=O)[O-])o1`, the inhibition was inactive: 5.07%.
